Consider three molecules from ChEMBL document CHEMBL1131897.

Protein sequences, listed by entry. Tags and fused reporters are not part of them.
UniProt P97266, whole entry: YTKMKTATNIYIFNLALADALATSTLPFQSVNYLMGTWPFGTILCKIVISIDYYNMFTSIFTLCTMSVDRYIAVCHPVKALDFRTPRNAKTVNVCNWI
UniProt P41144, whole entry: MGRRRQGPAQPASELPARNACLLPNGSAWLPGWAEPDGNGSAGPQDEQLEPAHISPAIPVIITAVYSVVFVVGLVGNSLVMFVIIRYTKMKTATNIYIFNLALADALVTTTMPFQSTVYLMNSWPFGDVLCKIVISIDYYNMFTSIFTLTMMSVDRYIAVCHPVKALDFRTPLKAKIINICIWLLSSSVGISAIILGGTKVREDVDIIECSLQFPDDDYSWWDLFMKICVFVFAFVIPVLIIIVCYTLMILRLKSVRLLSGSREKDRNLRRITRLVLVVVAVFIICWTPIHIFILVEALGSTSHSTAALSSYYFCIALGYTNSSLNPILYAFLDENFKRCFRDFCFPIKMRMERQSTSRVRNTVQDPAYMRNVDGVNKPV

The target of experiment [1] is Opioid receptors; mu & delta (Homo sapiens) (UniProt P41143+P35372). Description: Ratio of binding affinities (Mu/Delta).
Experiment [2] deals with Mu-type opioid receptor (Cavia porcellus) (UniProt P97266). Put plainly: [35S]GTP-gamma-S, induced maximal stimulation ( E max )against Mu opioid receptor in guinea pig caudate membranes in unblocked condition. For orientation: Binding of GTPγS marks nucleotide exchange on a G protein.
Experiment [3] has the same target. Put plainly: [35S]GTP-gamma-S, induced maximal stimulation ( E max ) against Mu opioid receptor in guinea pig caudate membranes blocked with 6000 nM CTAP.
The target in experiment [4] is Kappa-type opioid receptor (Cavia porcellus) (UniProt P41144). Put plainly: [35S]GTP-gamma-S, induced maximal stimulation ( E max )against Kappa opioid receptor in guinea pig caudate membranes blocked with 6 nM nor-BNI.

In the case of `C=CCN1CC[C@H](N(c2ccccc2)c2ccc(C(=O)N(CC)CC)cc2)[C@H](C)C1`, the Ratio in experiment [1] turned out to be 470. Further, the results for the Emax in experiment [2], in experiment [3] and in experiment [4] were 126 nM, 85 nM and 91 nM, respectively.

In the case of `C=CCN1CC[C@@H](N(c2ccccc2)c2ccc(C(=O)N(CC)CC)cc2)[C@@H](C)C1`, the Ratio in experiment [1] is over 72.

On to `C=CCN1CCC(N(c2ccccc2)c2ccc(C(=O)N(CC)CC)cc2)C(C)C1` (centres undefined), for which the Ratio in experiment [1] turned out to be 102. Moreover, the Emax came out at 63 nM in experiment [2], 55 nM in experiment [3] and 60 nM in experiment [4].
